Source: US20170247475A1

Target: cyno serum albumin (cyno)
Assay: SPR, albumin on chip, 1:1 interaction model

koff: 0.0017 s⁻¹
Substance: ALB11 (VHH)
